# Laboratory results taken from US20230123135A1 (priority 2020, published 2023).
# How the values were obtained:
# IL-1β = IL-1β in BALF, LPS-induced ARDS model; assay type: in vivo, Mus musculus (BALB/c)
# LPS-induced ARDS model = test: Survival analysis after LPS 20 mg/kg intraperitoneal; assay type: in vivo, Mus musculus (BALB/c); conditions: 48 h post-LPS
# [1] = Clinical trials for PAX-1, toxicity; conditions: 472 patients in clinical trials so far; a portion given up to 20 mg/day
substance,measurement,setting,value
sodium meta-arsenite,inhibitory rate of IL-1β production (negative control as 100%),"IL-1β; G2 SMA 1.03 mg/kg, 4 h",92%
same,inhibitory rate of IL-1β production (negative control as 100%),"IL-1β; G2 SMA 1.03 mg/kg, 6 h",87%
same,inhibitory rate of IL-1β production (negative control as 100%),"IL-1β; G2 SMA 1.03 mg/kg, 12 h",98%
same,inhibitory rate of IL-1β production (negative control as 100%),"IL-1β; G3 SMA 1.54 mg/kg, 4 h",81%
same,inhibitory rate of IL-1β production (negative control as 100%),"IL-1β; G3 SMA 1.54 mg/kg, 6 h",75%
same,inhibitory rate of IL-1β production (negative control as 100%),"IL-1β; G3 SMA 1.54 mg/kg, 12 h",92%
same,inhibitory rate of IL-1β production (negative control as 100%),"IL-1β; G4 SMA 2.05 mg/kg, 4 h",73%
same,inhibitory rate of IL-1β production (negative control as 100%),"IL-1β; G4 SMA 2.05 mg/kg, 6 h",70%
same,inhibitory rate of IL-1β production (negative control as 100%),"IL-1β; G4 SMA 2.05 mg/kg, 12 h",81%
same,survival compared to the negative control group (G1),"LPS-induced ARDS model; G3 SMA 1.54 mg/kg oral, p<0.005",extended
same,survival compared to the negative control group (G1),"LPS-induced ARDS model; G4 SMA 2.05 mg/kg oral, p<0.0005",extended
same,death due to the toxicity of the drug,[1],No death has been reported
